Percent response data for 3 molecules are collected here from PubChem BioAssay AID1893 (NMMLSC, 2009).

SMILES strings stand for the structures. Only a part is listed here, and it is no random draw. The source made the active and inactive calls. Cut-off read from the data, not from the text of the source: active = percent response mostly above about 71% (no sharp cut-off); inactive = mostly below about 38%.

For the assay, the system named is MEKK2 (MAP3K2) mutant PB1 domain binding MEK5, human. Briefly: mutant MEKK2 PB1-MEK5 binding signal retest – biochemical, single concentration, multiplex bead flow cytometry, confirmation (AID 1893).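 Note: higher means compound restores mutant binding toward wildtype level.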 As to conditions: Alexa488-MEK5 binding to MEKK2 mutant, at 10 µM, hits give high values.
For `CCN(CC)CCCOC(=O)C(O)(c1ccccc1)C1CCCCC1` (stereo not drawn), the percent response was inactive: 2%. The same measure for `CP(=O)(Nc1ccc(Cl)cc1)Oc1ccc(F)cc1` (stereo not drawn): inactive: 8%. The same measure for `COc1ccccc1OP(C)(=O)Nc1c(C)cccc1C` (stereo not drawn): inactive: 6%.
